For the first assay, the target named is T1, recombinant form of Glutaminase 1 (GAC) (Homo sapiens, UniProt O94925).
T1 sequence (O94925 137-598 isoform O94925-3 limits assumed): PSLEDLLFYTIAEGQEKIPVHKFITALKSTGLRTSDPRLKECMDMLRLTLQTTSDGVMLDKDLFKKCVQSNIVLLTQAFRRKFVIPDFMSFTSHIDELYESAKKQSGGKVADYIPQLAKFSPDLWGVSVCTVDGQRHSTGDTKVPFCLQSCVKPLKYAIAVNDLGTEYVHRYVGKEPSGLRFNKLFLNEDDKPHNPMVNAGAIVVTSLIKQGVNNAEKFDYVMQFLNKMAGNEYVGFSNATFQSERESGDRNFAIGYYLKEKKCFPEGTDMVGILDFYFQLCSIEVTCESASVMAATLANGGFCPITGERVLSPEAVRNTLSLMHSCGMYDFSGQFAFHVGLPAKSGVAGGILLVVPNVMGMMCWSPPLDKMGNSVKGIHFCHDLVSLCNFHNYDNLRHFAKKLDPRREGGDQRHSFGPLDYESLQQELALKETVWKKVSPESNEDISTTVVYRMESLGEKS
The assay is described as follows: Recombinant Enzyme Assay - Time Dependence (60 min preincubation). It is filed as biochemical.
Settings: not given
As to the method: The enzyme/compound mix was sealed with sealing foil (USA Scientific) and allowed to incubate, with mild agitation, for 60 minutes at 20° C. Enzymatic reaction was started with the addition of 50 μL of substrate solution (50 mM Tris-HCl pH 8.0, 0.2 mM EDTA, 150 mM K2HPO4, 0.1 mg/ml BSA, 1 mM DTT, 20 mM L-glutamine, 2 mM NAD^+, and 10 ppm antifoam) and read in a Molecular Devices M5 plate reader at 20° C. The plate reader was configured to read absorbance (=340 nm) in kinetic mode for 15 minutes. Data was recorded as milli-absorbance units per minute and slopes were compared to a control compound and a DMSO-only control on the same plate. Compounds with slopes less than the DMSO control were considered inhibitors and plate variability was assessed using the control compound.
Regarding `CS(=O)(=O)CCCOc1cccc(CC(=O)Nc2ccc(CCCCc3nnc(NC(=O)Cc4ccccc4)s3)nn2)c1` [Compound 623], the IC50 turned out to be 3 nM.

Staying with this assay, now noted: read-out: GAC Delta N2 IC50 60 min preinc.
On to `COc1cccc(CC(=O)Nc2ccc(CCCCc3nnc(NC(=O)C(O)c4cccc(Cl)c4)s3)nn2)c1` (centres unmarked) [Compound 467], for which the IC50 was 5 nM.
On the same count and under the same terms, the result for `CC(C)(C)OC(=O)NCc1ccccc1CC(=O)Nc1nnc(CCCCc2ccc(NC(=O)Cc3ccccc3)nn2)s1` [Compound 464] reads 5 nM; that for `O=C(Cc1cccc(Cl)c1)Nc1ccc(CCCCc2nnc(NC(=O)C(O)c3cccc(Cl)c3)s2)nn1` (centres unmarked) [Compound 448], 5 nM; that for `COc1cc(CC(=O)Nc2nnc(CCCCc3ccc(NC(=O)Cc4ccccc4)nn3)s2)ccc1O` [Compound 554], 8 nM.
`O=C(Cc1ccccc1)Nc1ccc(CCCCc2nnc(NC(=O)Cc3cccc(OC(F)F)c3)s2)nn1` [Compound 664]: the IC50 was 5 nM.
For `O=C(O)Cc1cccc(OCC(=O)Nc2nnc(CCCCc3ccc(NC(=O)Cc4ccccc4)nn3)s2)c1` [Compound 627], the IC50 stood at 28 nM.
With `COc1ccccc1CC(=O)Nc1nnc(CCCCc2ccc(NC(=O)Cc3ccccc3Cl)nn2)s1` [Compound 531], the IC50 is 6 nM.
Same read-out and setting: the result for `O=C(Cc1ccccc1)Nc1ccc(CCCCc2nnc(NC(=O)Cc3cccc(CN4CCCCC4=O)c3)s2)nn1` [Compound 476] reads 4 nM.
For the molecule `CC(=O)Nc1ccc(CCCCc2nnc(NC(=O)Cc3cccc(CNC(=O)CC(C)C)c3)s2)nn1` [Compound 461], the IC50 was 11 nM.
Regarding `CCNC(=O)OC(C)c1cccc(CC(=O)Nc2ccc(CCCCc3nnc(NC(=O)Cc4ccccc4)s3)nn2)c1` (centres unmarked) [Compound 610], the IC50 was 5 nM.
Still for that read-out and setting: in the case of `CC(=O)NCc1cccc(CC(=O)Nc2nnc(CCCCc3ccc(NC(C)=O)nn3)s2)c1` [Compound 459] it was 48 nM; in that of `C[C@@](O)(C(=O)NCc1cccc(CC(=O)Nc2nnc(CCCCc3ccc(NC(=O)Cc4ccccc4)nn3)s2)c1)C(F)(F)F` [Compound 477], 5 nM.
Turning to `CC(=O)N1Cc2cccc(CC(=O)Nc3nnc(CCCCc4ccc(NC(=O)Cc5ccccc5)nn4)s3)c2C1` [Compound 651], the IC50 was 6 nM.
Turning to `COc1cc(CC(=O)Nc2ccc(CCCCc3nnc(NC(=O)Cc4ccccc4)s3)nn2)ccc1F` [Compound 537], the IC50 was determined as 7 nM.
The same measure, in the same setting: in the case of `CC(=O)Nc1nnc(CCCCc2ccc(NC(=O)Cc3cccc(CNC(=O)OC(C)(C)C)c3)nn2)s1` [Compound 491] it was 8 nM; in that of `COCCOc1cccc(CC(=O)Nc2nnc(CCCCc3ccc(NC(=O)Cc4ccccc4)nn3)s2)c1` [Compound 428], 7 nM.
With `O=C(Cc1ccccc1)Nc1ccc(CCCCc2nnc(NC(=O)Cc3cccc(CNC(=O)C(F)(F)F)c3)s2)nn1` [Compound 458], the IC50 turned out to be 3 nM.
On the same count and under the same terms, the result for `O=C(Cc1ccccc1)Nc1nnc(CCCCc2ccc(NC(=O)NCc3ccccc3)nn2)s1` [Compound 405] reads 81 nM; that for `CC(C)(C)OC(=O)NCc1cccc(CC(=O)Nc2nnc(CCCCc3nnc(NC(=O)Cc4cccc(CNC(=O)OC(C)(C)C)c4)s3)s2)c1` [Compound 324], 11 nM.
As to `CC(O)c1cccc(CC(=O)Nc2ccc(CCCCc3nnc(NC(=O)Cc4ccccc4)s3)nn2)c1` (centres unmarked) [Compound 611], the IC50 was determined as 6 nM.
The same measure, in the same setting: the result for `NCc1ccc(CC(=O)Nc2nnc(CCCCc3ccc(NC(=O)Cc4ccccc4)nn3)s2)cc1` [Compound 407] reads 12 nM.
Same read-out and setting: in the case of `CC(C)(C)OC(=O)Nc1cccc(CC(=O)Nc2nnc(CCCCc3ccc(NC(=O)Cc4ccccc4)nn3)s2)c1` [Compound 399] it was 5 nM; in that of `CCCCNC(=O)Cc1cccc(CC(=O)Nc2nnc(CCCCc3ccc(NC(=O)Cc4ccccc4)nn3)s2)c1` [Compound 496], 3 nM.
Still for that read-out and setting: the result for `COc1ccc(CC(=O)Nc2nnc(CCCCc3ccc(NC(=O)Cc4ccccc4)nn3)s2)cc1O` [Compound 582] reads 5 nM.
In the case of `CC(N)c1cccc(CC(=O)Nc2ccc(CCCCc3nnc(NC(=O)Cc4ccccc4)s3)nn2)c1` (centres unmarked) [Compound 560], the IC50 came to 10 nM.
The same measure, in the same setting: the result for `COC(=O)Cc1cccc(OCC(=O)Nc2nnc(CCCCc3ccc(NC(=O)Cc4ccccc4)nn3)s2)c1` [Compound 628] reads 27 nM; that for `CCOC(=O)NCc1cccc(CC(=O)Nc2ccc(CCCCc3nnc(NC(=O)Cc4cccc(CNC(=O)OCC)c4)s3)nn2)c1` [Compound 572], 3 nM.
Turning to `O=C(Cc1ccccc1)Nc1ccc(CCCCc2nnc(NC(=O)Cc3cccc4c3CNC4)s2)nn1` [Compound 650], the IC50 was 13 nM.
`O=C(Cc1ccccc1)Nc1ccc(CCCCc2nnc(NC(=O)Cc3cccc4[nH]ncc34)s2)nn1` [Compound 512]: the IC50 worked out at 5 nM.
As for `O=C(Cc1ccccc1)Nc1ccc(CCCCc2nnc(NC(=O)Cc3cccc(Cl)c3F)s2)nn1` [Compound 545], the IC50 worked out at 6 nM.
Same read-out and setting: in the case of `COC(=O)NC(C)c1cccc(CC(=O)Nc2ccc(CCCCc3nnc(NC(=O)Cc4ccccc4)s3)nn2)c1` (centres unmarked) [Compound 589] it was 4 nM; in that of `CC(NC(=O)OC(C)(C)C)c1cccc(CC(=O)Nc2nnc(CCCCc3ccc(NC(=O)Cc4ccccc4)nn3)s2)c1` (centres unmarked) [Compound 541], 4 nM; in that of `O=C(Cc1ccccc1F)Nc1ccc(CCCCc2nnc(NC(=O)Cc3ccccc3F)s2)nn1` [Compound 534], 8 nM.
On the same count and under the same terms, in the case of `CC(=O)Nc1ccc(CC(=O)Nc2nnc(CCCCc3ccc(NC(=O)Cc4ccccc4)nn3)s2)cc1` [Compound 426] it was 11 nM; in that of `O=C(Cc1ccccc1)NCc1cccc(CC(=O)Nc2nnc(CCCCc3ccc(NC(=O)Cc4ccccc4)nn3)s2)c1` [Compound 435], 2 nM; in that of `O=C(Cc1ccccc1)Nc1ccc(CCCCc2nnc(NC(=O)NC3CCCC3)s2)nn1` [Compound 403], 18 nM.
For the molecule `Nc1ccc(CCCCc2nnc(NC(=O)Cc3cccc(OC(F)(F)F)c3)s2)nn1` [Compound 584], the IC50 stood at 220 nM.
For the molecule `O=C(Cc1ccccc1)Nc1ccc(CCCCc2nnc(NC(=O)Cc3cccc(CNC(=O)c4ccccc4)c3)s2)nn1` [Compound 432], the IC50 worked out at 2 nM.
On the same count and under the same terms, the result for `CC(C)(C)OC(=O)NCc1cccc(CC(=O)Nc2ccc(CCCCc3nnc(NC(=O)Cc4cccc(CNC(=O)OC(C)(C)C)c4)s3)nn2)c1` [Compound 571] reads 11 nM.
With `O=C(Cc1ccccc1)Nc1ccc(CCCCc2nnc(NC(=O)Cc3cccc(CC(=O)N4CCC(F)(F)CC4)c3)s2)nn1` [Compound 474], the IC50 was determined as 3 nM.
For `O=C(Cc1ccccc1)Nc1ccc(CCCCc2nnc(NC(=O)Cc3cccc(CN4CCCC4=O)c3)s2)nn1` [Compound 479], the IC50 was 5 nM.
On the same count and under the same terms, the result for `COc1cc(CC(=O)Nc2nnc(CCCCc3ccc(NC(=O)Cc4ccccc4)nn3)s2)ccc1F` [Compound 515] reads 7 nM.
Still for that read-out and setting: in the case of `CS(=O)(=O)Cc1cccc(CC(=O)Nc2nnc(CCCCc3ccc(NC(=O)Cc4ccccc4)nn3)s2)c1` [Compound 634] it was 6 nM.
On the same count and under the same terms, the result for `Cc1noc(Cc2cccc(CC(=O)Nc3ccc(CCCCc4nnc(NC(=O)Cc5ccccc5)s4)nn3)c2)n1` [Compound 648, 2-(3-((3-methyl-1,2,4-oxadiazol-5-yl)methyl)phenyl)-N-(6-(4-(5-(2-phenylacetamido)-1,3,4-thiadiazol-2-yl)butyl)pyridazin-3-yl)acetamide] reads 4 nM.
As for `O=C(Cc1ccccc1)Nc1ccc(CCCCc2nnc(NC(=O)C(O)c3cccc(Br)c3)s2)nn1` (centres unmarked) [Compound 415], the IC50 came to 6 nM.
Consider `CN(C)CC(=O)Nc1ccc(CCCCc2nnc(NC(=O)Cc3cccc(CNC(=O)OC(C)(C)C)c3)s2)nn1` [Compound 478], for which the IC50 amounted to 18 nM.
`O=C(Cc1ccccc1)Nc1ccc(CCCCc2nnc(NC(=O)Cc3cccc(OCCO)c3)s2)nn1` [Compound 427]: the IC50 worked out at 7 nM.
On the same count and under the same terms, in the case of `Cc1nnc(Cc2cccc(CC(=O)Nc3ccc(CCCCc4nnc(NC(=O)Cc5ccccc5)s4)nn3)c2)o1` [Compound 652, 2-(3-((5-methyl-1,3,4-oxadiazol-2-yl)methyl)phenyl)-N-(6-(4-(5-(2-phenylacetamido)-1,3,4-thiadiazol-2-yl)butyl)pyridazin-3-yl)acetamide] it was 4 nM; in that of `CCNC(=O)Nc1ccc(CCCCc2nnc(NC(=O)Cc3cccc(CNC(=O)OC(C)(C)C)c3)s2)nn1` [Compound 420], 13 nM; in that of `Nc1cccc(CC(=O)Nc2nnc(CCCCc3ccc(NC(=O)Cc4ccccc4)nn3)s2)c1` [Compound 409], 8 nM.

A further assay deals with T1, recombinant form of Glutaminase 1 (GAC). As to the kind of experiment: Recombinant Enzyme Assay (no preincubation).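 Note: GDH-coupled GAC activity read as absorbance at 340 nm in kinetic mode over 15 min at 20 °C, slopes compared with a DMSO-only control, lower slope means inhibition.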 The format is biochemical. The conditions noted are these: read-out: GAC Delta N2 IC50 no preinc.
As to `O=C(Cc1ccccc1)Nc1ccc(CCCCc2nnc(NC(=O)[C@H](O)c3ccccc3)s2)nn1` [Compound 349], the IC50 was found to be 120 nM.
On the same count and under the same terms, in the case of `O=C(Cc1ccccc1)Nc1ccc(CCCCc2nnc(NC(=O)Cc3cccc(Cl)c3)s2)nn1` [Compound 335] it was 62 nM.

For the origin of these results see patent publication US20150004134A1, “TREATMENT OF CANCER WITH HETEROCYCLIC INHIBITORS OF GLUTAMINASE” (Calithera Biosciences, Inc., priority 2012, published 2015).
